BindingDB's records for doi:10.1016/s0028-3908(96)00171-2 (Smithkline Beecham Pharmaceuticals, 1997)

Amino acid sequences for entries named in this document (tags omitted).
UniProt P41595, whole entry: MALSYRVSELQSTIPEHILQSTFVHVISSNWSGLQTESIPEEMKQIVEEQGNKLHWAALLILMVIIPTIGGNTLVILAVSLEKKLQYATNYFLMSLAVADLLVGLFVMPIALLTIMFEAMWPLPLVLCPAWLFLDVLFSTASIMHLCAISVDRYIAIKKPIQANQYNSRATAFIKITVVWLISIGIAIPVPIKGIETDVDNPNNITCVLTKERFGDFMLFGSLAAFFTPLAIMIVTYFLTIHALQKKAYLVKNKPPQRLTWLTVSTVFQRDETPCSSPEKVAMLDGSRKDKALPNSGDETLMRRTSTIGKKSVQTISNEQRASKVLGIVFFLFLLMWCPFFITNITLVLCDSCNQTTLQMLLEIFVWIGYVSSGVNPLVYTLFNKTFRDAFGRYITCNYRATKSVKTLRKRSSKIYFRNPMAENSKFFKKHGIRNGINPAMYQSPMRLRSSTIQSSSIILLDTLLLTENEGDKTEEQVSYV

Target: 5-hydroxytryptamine receptor 2B (Homo sapiens, UniProt P41595)

CC(N)Cc1c[nH]c2ccc(OCc3cccs3)cc12 (stereo unspecified) [NSC_5311036]
Ki: 63.1 nM
